Where a name gives a salt, the structure may show the parent alone.
Assays:
Test in all cases: biochemical
Settings in all cases: read-out: Fold change versus DMSO control
[1] = target: ALKBH2 (Homo sapiens, UniProt Q6NS38)
Protocol: (§1) Cells were harvested by centrifugation, washed once with 1 x PBS buffer (Invitrogen, #14190-094) and cell pellets were frozen in liquid nitrogen and subsequently stored at -80°C.
(§2) Cells were homogenized in a Potter S homogenizer in lysis buffer: 50 mM Tris-HCl, 0.8% NP40, 5% glycerol, 150 mM NaCl, 1.5 mM MgCl2, 25 mM NaF, 1 mM sodium vanadate, 1 mM DTT, pH 7.5. […] The supernatant was transferred again to a fresh 50 ml falcon tube, the protein concentration was determined by a Bradford assay (BioRad) and samples containing 50 mg of protein per aliquot were prepared.

By UniProt entry, the sequences of proteins in these tests, tags left out. Where a name states a change or a piece, a line headed by the entry shows the natural chain unless it says otherwise.
UniProt Q6NS38: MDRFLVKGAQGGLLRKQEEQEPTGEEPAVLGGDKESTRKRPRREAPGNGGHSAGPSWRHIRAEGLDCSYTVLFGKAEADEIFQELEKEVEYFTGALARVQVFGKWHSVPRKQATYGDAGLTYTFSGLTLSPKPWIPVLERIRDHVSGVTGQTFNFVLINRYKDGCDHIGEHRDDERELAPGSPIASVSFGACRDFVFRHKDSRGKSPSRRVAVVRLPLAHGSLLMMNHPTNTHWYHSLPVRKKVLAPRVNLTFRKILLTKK
UniProt Q9GZT9: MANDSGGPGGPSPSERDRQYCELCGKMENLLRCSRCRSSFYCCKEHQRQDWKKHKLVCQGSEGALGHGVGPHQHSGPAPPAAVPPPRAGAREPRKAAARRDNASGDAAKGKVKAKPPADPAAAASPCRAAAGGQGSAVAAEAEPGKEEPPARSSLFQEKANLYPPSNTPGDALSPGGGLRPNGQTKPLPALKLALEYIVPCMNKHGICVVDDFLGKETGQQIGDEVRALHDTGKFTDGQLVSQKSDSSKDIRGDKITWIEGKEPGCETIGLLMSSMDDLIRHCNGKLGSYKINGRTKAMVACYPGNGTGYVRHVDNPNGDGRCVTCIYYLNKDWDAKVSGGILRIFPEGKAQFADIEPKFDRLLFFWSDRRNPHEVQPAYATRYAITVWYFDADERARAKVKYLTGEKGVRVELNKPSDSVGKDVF
UniProt Q9C0B1, whole entry: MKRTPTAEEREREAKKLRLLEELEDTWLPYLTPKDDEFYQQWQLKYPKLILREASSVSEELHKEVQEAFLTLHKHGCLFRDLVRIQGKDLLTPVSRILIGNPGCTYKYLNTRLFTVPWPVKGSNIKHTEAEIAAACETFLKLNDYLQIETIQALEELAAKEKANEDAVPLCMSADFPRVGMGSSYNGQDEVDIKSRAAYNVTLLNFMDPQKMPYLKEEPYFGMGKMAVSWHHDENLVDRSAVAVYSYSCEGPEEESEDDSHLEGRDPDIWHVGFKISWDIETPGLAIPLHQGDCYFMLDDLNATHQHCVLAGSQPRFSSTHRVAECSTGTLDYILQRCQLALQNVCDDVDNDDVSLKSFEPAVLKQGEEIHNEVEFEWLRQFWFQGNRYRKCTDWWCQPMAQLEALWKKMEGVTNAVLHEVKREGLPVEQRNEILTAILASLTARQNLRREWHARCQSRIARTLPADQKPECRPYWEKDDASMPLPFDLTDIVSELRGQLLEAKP
UniProt Q8N543: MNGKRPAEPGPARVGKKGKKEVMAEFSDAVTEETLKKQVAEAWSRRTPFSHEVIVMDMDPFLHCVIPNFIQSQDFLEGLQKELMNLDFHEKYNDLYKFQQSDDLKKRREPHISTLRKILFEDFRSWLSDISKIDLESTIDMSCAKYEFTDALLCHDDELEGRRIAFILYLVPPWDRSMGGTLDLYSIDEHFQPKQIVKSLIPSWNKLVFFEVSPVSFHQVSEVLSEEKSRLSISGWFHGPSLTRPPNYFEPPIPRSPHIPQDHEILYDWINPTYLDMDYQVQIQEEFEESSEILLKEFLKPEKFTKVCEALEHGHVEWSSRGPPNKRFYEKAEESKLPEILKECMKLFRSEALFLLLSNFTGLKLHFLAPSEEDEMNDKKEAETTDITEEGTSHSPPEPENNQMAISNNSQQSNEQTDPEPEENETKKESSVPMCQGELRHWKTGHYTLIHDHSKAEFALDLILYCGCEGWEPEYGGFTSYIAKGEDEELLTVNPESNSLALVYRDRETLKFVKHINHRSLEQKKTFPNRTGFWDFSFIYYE

[2] = target: T1, ALKBH3 (Homo sapiens, UniProt Q96Q83)
T1 sequence (Q96Q83 1-286): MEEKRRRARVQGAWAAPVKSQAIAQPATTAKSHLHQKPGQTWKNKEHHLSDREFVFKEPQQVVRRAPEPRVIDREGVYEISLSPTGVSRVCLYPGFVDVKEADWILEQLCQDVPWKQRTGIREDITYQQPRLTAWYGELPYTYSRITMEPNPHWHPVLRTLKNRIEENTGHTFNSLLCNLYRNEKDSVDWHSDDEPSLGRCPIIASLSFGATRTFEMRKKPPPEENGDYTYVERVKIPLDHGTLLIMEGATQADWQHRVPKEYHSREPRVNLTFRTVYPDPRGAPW
Protocol: as §1, §2

[3] = target: EGLN1 (Homo sapiens, UniProt Q9GZT9)
Protocol: as §1, §2

[4] = target: FTO (Homo sapiens, UniProt Q9C0B1)
Protocol: as §1, §2

[5] = target: T2, LEPRE1 (Homo sapiens, UniProt Q32P28)
T2 sequence (Q32P28 23-736): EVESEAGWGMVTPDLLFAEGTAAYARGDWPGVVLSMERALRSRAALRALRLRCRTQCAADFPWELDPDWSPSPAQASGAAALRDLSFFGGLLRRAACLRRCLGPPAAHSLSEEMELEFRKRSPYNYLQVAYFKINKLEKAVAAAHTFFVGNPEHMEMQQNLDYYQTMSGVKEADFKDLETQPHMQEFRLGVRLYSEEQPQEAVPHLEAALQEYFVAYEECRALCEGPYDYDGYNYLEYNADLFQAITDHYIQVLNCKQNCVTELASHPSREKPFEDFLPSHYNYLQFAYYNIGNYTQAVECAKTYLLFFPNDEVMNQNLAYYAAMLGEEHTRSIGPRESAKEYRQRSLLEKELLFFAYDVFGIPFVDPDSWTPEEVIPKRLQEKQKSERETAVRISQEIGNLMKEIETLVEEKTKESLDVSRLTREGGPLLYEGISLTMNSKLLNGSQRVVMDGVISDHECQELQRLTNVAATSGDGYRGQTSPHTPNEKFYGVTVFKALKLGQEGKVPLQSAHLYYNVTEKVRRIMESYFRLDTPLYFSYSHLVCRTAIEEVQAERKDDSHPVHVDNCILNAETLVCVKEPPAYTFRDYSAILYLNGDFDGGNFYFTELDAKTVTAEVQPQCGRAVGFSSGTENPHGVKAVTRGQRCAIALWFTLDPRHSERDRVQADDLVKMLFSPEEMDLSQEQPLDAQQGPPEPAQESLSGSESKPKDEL
Protocol: as §1, §2

[6] = target: OGFOD1 (Homo sapiens, UniProt Q8N543)
Protocol: as §1, §2

[7] = target: T3, PLOD1 (Homo sapiens, UniProt Q02809)
T3 sequence (Q02809 19-727): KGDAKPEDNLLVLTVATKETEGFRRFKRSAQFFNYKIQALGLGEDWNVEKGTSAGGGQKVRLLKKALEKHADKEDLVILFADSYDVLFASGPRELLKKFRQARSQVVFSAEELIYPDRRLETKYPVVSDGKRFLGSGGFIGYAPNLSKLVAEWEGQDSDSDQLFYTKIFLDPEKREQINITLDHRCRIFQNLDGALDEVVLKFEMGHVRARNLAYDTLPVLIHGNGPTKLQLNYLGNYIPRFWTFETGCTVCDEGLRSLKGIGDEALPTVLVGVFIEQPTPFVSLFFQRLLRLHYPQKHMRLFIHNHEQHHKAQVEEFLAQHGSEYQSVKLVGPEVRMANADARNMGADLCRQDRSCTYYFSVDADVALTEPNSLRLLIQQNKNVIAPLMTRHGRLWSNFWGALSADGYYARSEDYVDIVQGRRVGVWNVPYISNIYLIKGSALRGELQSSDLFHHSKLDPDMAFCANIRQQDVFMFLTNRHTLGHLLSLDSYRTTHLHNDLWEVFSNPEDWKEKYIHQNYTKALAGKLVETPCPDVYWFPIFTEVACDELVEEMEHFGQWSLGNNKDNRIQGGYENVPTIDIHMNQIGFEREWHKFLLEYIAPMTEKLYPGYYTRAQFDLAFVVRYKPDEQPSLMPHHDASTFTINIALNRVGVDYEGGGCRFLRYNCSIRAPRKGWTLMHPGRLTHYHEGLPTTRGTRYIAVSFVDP
Protocol: as §1, §2

[8] = target: T4, PLOD3 (Homo sapiens, UniProt O60568)
T4 sequence (O60568 25-738): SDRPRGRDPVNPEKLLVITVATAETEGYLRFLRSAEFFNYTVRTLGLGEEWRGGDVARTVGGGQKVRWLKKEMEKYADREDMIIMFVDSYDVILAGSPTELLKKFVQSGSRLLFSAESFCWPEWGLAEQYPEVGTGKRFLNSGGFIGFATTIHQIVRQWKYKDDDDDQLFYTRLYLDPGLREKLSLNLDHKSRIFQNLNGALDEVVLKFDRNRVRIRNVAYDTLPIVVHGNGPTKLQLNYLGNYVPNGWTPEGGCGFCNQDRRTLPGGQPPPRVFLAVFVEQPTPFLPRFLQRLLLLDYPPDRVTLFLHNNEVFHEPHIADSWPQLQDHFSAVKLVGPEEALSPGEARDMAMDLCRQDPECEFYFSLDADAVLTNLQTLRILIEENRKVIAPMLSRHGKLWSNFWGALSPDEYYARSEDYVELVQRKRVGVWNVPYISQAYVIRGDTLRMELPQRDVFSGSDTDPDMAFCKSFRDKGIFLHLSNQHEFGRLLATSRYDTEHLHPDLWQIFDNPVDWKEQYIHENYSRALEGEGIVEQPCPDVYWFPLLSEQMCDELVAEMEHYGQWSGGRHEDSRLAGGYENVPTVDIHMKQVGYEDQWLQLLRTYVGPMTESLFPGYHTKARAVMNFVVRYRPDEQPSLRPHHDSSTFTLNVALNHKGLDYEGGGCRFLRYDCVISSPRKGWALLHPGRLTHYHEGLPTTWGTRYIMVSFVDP
Protocol: as §1, §2

`O=C(O)CNC(=O)C1C(=O)OC2(CCNCC2)OC1=O` [compound A, 2-(2,4-dioxo-1,5-dioxa-9-azaspiro[5.5]undecane-3-carboxamido)acetic acid hydrochloride] gave a remaining activity at 200 µM [1] of 121%, a remaining activity at 200 µM [2] of 45% and a remaining activity at 200 µM [3] of 20%. For the same compound, the remaining activity at 200 µM [4] was 25%, the remaining activity at 200 µM [5] was 70% and the remaining activity at 200 µM [6] was 22%. It also gave a remaining activity at 200 µM [7] of 77% and a remaining activity at 200 µM [8] of 104%.
